Assay results taken from ChEMBL document CHEMBL1157932, “Prenylated pterocarpans as bacterial neuraminidase inhibitors” (Bioorg Med Chem, 2010).

By UniProt entry, the sequences of proteins in these tests, tags left out.
UniProt P0C6E9, whole entry: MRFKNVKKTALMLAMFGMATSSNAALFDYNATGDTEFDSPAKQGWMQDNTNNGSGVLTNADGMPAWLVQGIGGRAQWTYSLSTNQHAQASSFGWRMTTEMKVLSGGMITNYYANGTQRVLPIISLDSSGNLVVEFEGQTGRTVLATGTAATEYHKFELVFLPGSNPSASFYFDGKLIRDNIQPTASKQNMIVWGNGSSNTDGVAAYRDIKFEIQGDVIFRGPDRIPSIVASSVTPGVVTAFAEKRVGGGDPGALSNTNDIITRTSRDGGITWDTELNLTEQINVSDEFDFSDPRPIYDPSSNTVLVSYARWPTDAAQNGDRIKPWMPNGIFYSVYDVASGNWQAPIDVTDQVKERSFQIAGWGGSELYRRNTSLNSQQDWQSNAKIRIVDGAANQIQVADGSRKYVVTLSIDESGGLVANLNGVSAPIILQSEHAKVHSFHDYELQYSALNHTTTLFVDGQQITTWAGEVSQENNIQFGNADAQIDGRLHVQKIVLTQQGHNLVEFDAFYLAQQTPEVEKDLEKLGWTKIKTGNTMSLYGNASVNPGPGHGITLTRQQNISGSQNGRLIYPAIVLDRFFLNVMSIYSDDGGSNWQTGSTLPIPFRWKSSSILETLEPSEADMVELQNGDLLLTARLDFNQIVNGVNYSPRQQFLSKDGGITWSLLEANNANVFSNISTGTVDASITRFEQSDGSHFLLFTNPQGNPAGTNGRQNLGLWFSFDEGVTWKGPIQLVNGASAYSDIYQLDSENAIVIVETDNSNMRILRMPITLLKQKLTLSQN

Each compound was assayed against Sialidase (Vibrio cholerae serotype O1 (strain ATCC 39315 / El Tor Inaba N16961)) (UniProt P0C6E9) (assay: Inhibition of Vibrio cholerae neuraminidase assessed as inhibition of 4-MU-NANA hydrolysis after 30 mins by spectrofluorimetry).
Procedure, shortened: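 V. cholerae enzyme (8.3 U) with compound in 50 mM MES, 6 mM CaCl2, pH 5.6, pre-incubated 30 min at 37 °C with shaking. 4-MU-NANA added at 25 µM final, 30 min at 37 °C, then quenched with 0.25 M glycine pH 10.0. Read at ex 360/em 440 nm, blank-corrected, expressed as % of no-inhibitor control, at least triplicate.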

Compound | Activity
CC(C)=CCc1c(O)ccc2c1O[C@H]1c3cc4c(cc3OC[C@@H]21)OC(C)(C)C(O)C4 (stereo partly drawn) [ERYTHRIBYSSIN L] | Dose-dependent effect
CC(C)=CCc1cc2c(cc1O)OC[C@H]1c3ccc(O)cc3O[C@@H]21 [CALOPOCARPIN] | Dose-dependent effect
CC(C)=CCc1cc2c(cc1O)O[C@H]1c3ccc(O)cc3OC[C@@H]21 [SOPHORAPTEROCARPAN A] | Dose-dependent effect
